Experimental data published in patent publication US20230338564A1, “NEODEGRADER CONJUGATES” (Orum Therapeutics, Inc., priority 2020, published 2023).

Legend:
Test in all cases: In vitro antiproliferation assay, General Procedure 2 (CCK-8)
Format in all cases: cell-based
Details in all cases: anti-BCMA conjugate (Table 12)
[1] = system: KMS-12-BM multiple myeloma cell line
Text: (§1) Cell Culture: Cell lines were obtained from the American Type Culture Collection (ATCC, Manassas, VA, USA) or Deutsche Sammlung von Mikroorganismen und Zellkulturen (DSMZ, Braunschweig, Germany) and maintained according to the culturing conditions specified by ATCC or DSMZ. Cells were thawed out and maintained in culture for at least two passages before proceeding with experimental conditions.
(§2) Cytotoxicity assays: For adherent cell lines, the cells were dissociated with enzyme-free PBS-based cell dissociation buffer (Gibco, USA) and plated on tissue culture treated 96-well flat bottom polystyrene plates (Costar, Corning, USA) at appropriate cell densities depending on doubling time of the cells. 18 hours after plating, cells were treated with test articles at appropriate concentrations starting at 100 nM and diluted in 4-fold serial dilutions. For suspension cell lines, the cells were seeded on the same day of treatment and cells were treated as described above. Adherent cells were treated for 5 days and suspension cells were treated for 3 days. Cell proliferation was assessed using the Cell Counting Kit-8 (CCK-8, Dojindo Laboratories, Japan) and measurements were obtained using the Promega GloMax Discover plate reader (Promega, USA). Data were analyzed using GraphPad Prism software (GraphPad Software, San Diego, CA). All data points were obtained from technical triplicates and the experiments were validated using three biological replicates.

[2] = system: LP-1 multiple myeloma cell line
Text: as §1, §2

[3] = system: NCI-H929 multiple myeloma cell line
Text: as §1, §2

[4] = system: OPM-2 multiple myeloma cell line
Text: as §1, §2

[5] = system: MM.1S multiple myeloma cell line
Text: as §1, §2

[6] = system: MM.1R multiple myeloma cell line
Text: as §1, §2

[7] = system: MOLP-2 multiple myeloma cell line
Text: as §1, §2

B1: Belantamab-Compound (Ia) (conjugate, chains of the INN, looked up)
heavy: QVQLVQSGAEVKKPGSSVKVSCKASGGTFSNYWMHWVRQAPGQGLEWMGATYRGHSDTYYNQKFKGRVTITADKSTSTAYMELSSLRSEDTAVYYCARGAIYDGYDVLDNWGQGTLVTVSSASTKGPSVFPLAPSSKSTSGGTAALGCLVKDYFPEPVTVSWNSGALTSGVHTFPAVLQSSGLYSLSSVVTVPSSSLGTQTYICNVNHKPSNTKVDKKV[human IgG1 Fc not written out]
light: DIQMTQSPSSLSASVGDRVTITCSASQDISNYLNWYQQKPGKAPKLLIYYTSNLHSGVPSRFSGSGSGTDFTLTISSLQPEDFATYYCQQYRKLPWTFGQGTKLEIKRTVAAPSVFIFPPSDEQLKSGTASVVCLLNNFYPREAKVQWKVDNALQSGNSQESVTEQDSKDSTYSLSSTLTLSKADYEKHKVYACEVTHQGLSSPVTKSFNRGEC
modifications: conjugated to Compound (Ia)
**Q.** With B1 as the molecule, how does the IC50 [1] read?
**A.** 87 pM

**Q.** And the IC50 [2]?
**A.** 3170 pM

**Q.** And the IC50 [3]?
**A.** 11900 pM

**Q.** And the IC50 [4]?
**A.** 119 pM

**Q.** And the IC50 [5]?
**A.** 209 pM

**Q.** What about the IC50 [6] of the same molecule?
**A.** 684 pM

**Q.** And the IC50 [7]?
**A.** 197 pM
